The target in this experiment is human FcγRIIb (human) (UniProt P31994). The experiment in a line: -; range printed as 1.8~2.3.

Amino acid sequences for entries named in this document (tags omitted). Residues count along the entry.
UniProt P31994, 43-310: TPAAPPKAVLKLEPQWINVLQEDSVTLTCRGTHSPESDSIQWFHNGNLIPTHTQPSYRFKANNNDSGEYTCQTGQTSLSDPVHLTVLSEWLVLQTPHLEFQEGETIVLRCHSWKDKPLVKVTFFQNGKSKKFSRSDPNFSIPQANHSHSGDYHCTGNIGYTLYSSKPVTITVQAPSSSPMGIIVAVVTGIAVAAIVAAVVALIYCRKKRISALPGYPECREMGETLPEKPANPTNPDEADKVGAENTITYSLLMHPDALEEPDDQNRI

pKd: −log10 of the molar value.

The pKd is the negative decadic logarithm of the Kd, by convention in mol/L. Read a low pKd as a high Kd. As to IgG 1, the pKd was 5.74.
